Source: ChEMBL document CHEMBL1134559 (J Med Chem, 2001)

Chains of the proteins cited; added tags and fusions are not shown.
UniProt P33535, whole entry: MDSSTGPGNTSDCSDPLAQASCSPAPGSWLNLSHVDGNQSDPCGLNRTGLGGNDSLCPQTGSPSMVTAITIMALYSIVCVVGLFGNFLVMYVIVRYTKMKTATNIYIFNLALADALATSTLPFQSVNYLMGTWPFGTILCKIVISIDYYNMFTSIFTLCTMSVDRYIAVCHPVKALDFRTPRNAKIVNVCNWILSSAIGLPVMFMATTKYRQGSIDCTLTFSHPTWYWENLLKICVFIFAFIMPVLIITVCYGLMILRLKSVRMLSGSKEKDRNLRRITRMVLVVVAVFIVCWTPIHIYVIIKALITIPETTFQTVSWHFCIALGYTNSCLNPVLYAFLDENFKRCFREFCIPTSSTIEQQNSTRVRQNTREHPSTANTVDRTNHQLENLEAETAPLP

Biological target: Mu-type opioid receptor (Rattus norvegicus, UniProt P33535)
Experiment: Binding affinity to mu-opioid receptor of rat brain using [3H]DAMGO as radioligand

Oc1ccc2c3c1O[C@H]1c4[nH]c5c(c4C[C@@]4(O)[C@@H](C2)N(CC2CC2)CC[C@]314)C[C@@]1(O)[C@H]2Cc3ccc(O)c4c3[C@@]1(CCN2CC1CC1)[C@H]5O4 [NORBINALTORPHIMINE]
Ki: 0.0651 µM
